The record followed here is ChEMBL document CHEMBL1125198, “Synthesis, ligand binding, QSAR, and CoMFA study of 3 beta-(p-substituted phenyl)tropane-2 beta-carboxylic acid methyl esters” (J Med Chem, 1991).

Protein sequences, listed by entry. Tags and fused reporters are not part of them.
UniProt P23977, whole entry: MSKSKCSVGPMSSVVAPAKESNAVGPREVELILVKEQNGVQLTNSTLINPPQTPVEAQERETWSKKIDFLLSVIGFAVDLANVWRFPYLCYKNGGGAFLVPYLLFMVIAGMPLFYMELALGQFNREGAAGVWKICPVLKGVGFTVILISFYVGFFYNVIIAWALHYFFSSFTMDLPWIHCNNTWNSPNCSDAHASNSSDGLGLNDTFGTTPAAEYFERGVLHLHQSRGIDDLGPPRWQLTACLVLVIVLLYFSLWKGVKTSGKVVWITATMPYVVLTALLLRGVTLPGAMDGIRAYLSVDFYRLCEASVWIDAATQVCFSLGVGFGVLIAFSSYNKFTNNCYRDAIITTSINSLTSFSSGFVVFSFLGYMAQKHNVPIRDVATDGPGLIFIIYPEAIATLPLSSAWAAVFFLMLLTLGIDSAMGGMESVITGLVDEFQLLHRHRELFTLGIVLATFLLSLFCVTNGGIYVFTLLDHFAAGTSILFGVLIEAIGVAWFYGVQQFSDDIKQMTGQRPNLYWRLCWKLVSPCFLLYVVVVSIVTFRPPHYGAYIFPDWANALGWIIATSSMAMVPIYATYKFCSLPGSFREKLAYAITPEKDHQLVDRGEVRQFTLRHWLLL

The experiment concerns the target Sodium-dependent dopamine transporter (Rattus norvegicus, UniProt P23977). As to the kind of experiment: Affinity against cocaine binding site of dopamine transporter in rat striatum using [3H]2b as radioligand. The format is tissue-based.

As usually defined, the IC50 is the concentration needed to halve the response being measured. A low value points to inhibition by little substance. Regarding `COC(=O)[C@@H]1C2CC[C@H](C[C@@H]1c1ccc(OC)cc1)N2C`, the IC50 was found to be 8.14 nM.
